In the assay the target is T1, ERK1/2 kinase.
T1 construct: fused on or other part: Carna's ERK products carry a GST tag by vendor knowledge
Kind of assay: ERK1/2 kinase (Carna) inhibitory activity, Caliper mobility shift. Type of assay: biochemical. The note with it: numeric values; read-out: ERK½ IC50. The procedure:
(1) Preparation of 1×Kinase buffer; (2) preparation of compound concentration gradient: the initial test concentration of the tested compound was 10 μM, which was 3-fold diluted to 10 concentrations, and a duplicate test was conducted, and then the tested compound was diluted in a 96 well plate to a 100-fold final concentration of 10 different concentrations of solution. […] Log (inhibitor) vs. response—Variable slope of the analysis software GraphPad Prism 5 was used to fit the dose-effect curve to obtain the IC50 value of each compound on the enzyme activity.
2. […] (A<10 nM, 10 nM≤B<200 nM, C≥200 nM)

As usually defined, the IC50 is the point on the concentration scale where inhibition reaches its midpoint. With `Cc1cccc([C@@H](CO)NC(=O)[C@@H](C)N2Cc3c(F)cc(-c4nc(NC5CCOCC5)ncc4Cl)cc3C2=O)c1` [Comparative compound 4, (R)-2-(6-(5-Chloro-2-((tetrahydro-2H-pyran-4-yl)amino)pyrimidin-4-yl)-4-fluoro-1-oxoisoindolin-2-yl)-N—((S)-2-hydroxy-1-(m-tolyl)ethyl)propanamide, reference compound], the 50% inhibitory concentration (IC50) turned out to be 0.7 nM.

Values taken from US20230312564A1, “AROMATIC RING-LACTAM COMPOUND, PREPARATION METHOD THEREFOR AND USE THEREOF” (SHANGHAI RINGENE BIOPHARMA CO., LTD., priority 2020, published 2023).
